Test system: human lung-on-a-chip
Experiment: IL-2 toxicity (pulmonary vascular leakage) in human lung-on-a-chip
Format: cell-based
Description: Lung chips or lung-on-a-chip: The methods, multi-channeled architecture and ability of a Lung Chip (FIG. 1 and FIGS. 2A-2B) to mimic, at least in part, the normal physiology (e.g., normal breathing) of a lung are based on the first organ chip design and has been previously described in Huh D. et al. “Reconstituting organ-level lung function on a chip” Science (2010) 328: 1662, and in the International Application No. WO 2010/009307, the contents of which are incorporated herein by reference in their entireties.
In some embodiments, one side of the membrane 206 can be seeded with alveolar epithelial cells to mimic an epithelial layer while another side of the membrane 206 can be seeded with lung microvascular endothelial cells to mimic capillary vessels. Accordingly, lung chips, in some embodiments can be used to mimic an alveolar-capillary unit, which plays a vital role in the maintenance of normal physiological function of the lung as well as in the pathogenesis and progression of various pulmonary diseases.
The lung chips can be used to evaluate lung response to an active agent, e.g., but not limited to, immune response to microbial infection and/or inflammatory responses to nanoparticulate toxins. […]

Substance: IL-2: chemotherapeutic cytokine with dose-limiting toxicity due to vascular leakage leading to pulmonary edema in humans
- blood clot formation (physiological breathing motions (10% cyclic strain)): accompanied by blood clot formation as seen in humans
- increase of pulmonary vascular leakage response relative to static conditions (physiological breathing motions (10% cyclic strain), fluorescent-insulin marker): more than 3 fold
- pulmonary vascular leakage into the air channel of the lung chip (static conditions, fluorescent-insulin as marker of vascular permeability): small but significant increase
